## Apparent affinities of Ab-95 variants for a coronavirus HR2 peptide

Values reported by Engelhart et al. 2022, doi:10.1038/s41597-022-01779-4 (FLAb copy).

The target is the same throughout: PDVDLGDISGINAS, from the HR2 region of SARS-CoV-2 spike.

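The starting antibody came from a phage panning campaign against this peptide. In library AAYL52, one, two or three CDR residues were substituted; doubles and triples were drawn at random. AlphaSeq pools MATa yeast showing the antibodies with MATalpha yeast showing the peptide. After mating in shaken culture at 30 °C for 16 h, diploids were selected and their barcode pairs sequenced. The ratio of observed to expected reads was calibrated, replicate by replicate, on BCL2-family standards whose Kd was known from biolayer interferometry. The assay was run in three technical replicates.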

Parent scFv Ab-95: VH joined to VL by a 15-residue (Gly4Ser)3 linker. Changes lie in the light chain CDRs alone.
VH: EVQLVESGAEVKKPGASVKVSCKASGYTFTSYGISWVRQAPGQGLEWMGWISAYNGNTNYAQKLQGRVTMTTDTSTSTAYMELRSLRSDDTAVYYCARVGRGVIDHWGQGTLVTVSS
VL: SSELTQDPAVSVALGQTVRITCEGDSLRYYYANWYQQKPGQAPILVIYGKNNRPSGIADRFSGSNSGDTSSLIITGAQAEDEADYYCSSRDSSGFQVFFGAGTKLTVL

Each variant is given by its three light chain CDRs, as the data file delimits them; those of the parent are EGDSLRYYYAN, GKNNRPS, SSRDSSGFQVF.
The read-out is the apparent dissociation constant on a log10 scale (nM): the lower, the stronger.
The mean shown is taken over the replicates in which the pair was detected.
"n.d." means that the variant was in the library but no mating with the target was seen in that replicate; the authors take this as a sign of poor binding, and no number exists.
As a blank, each scFv also met three strains without target: over library AAYL52, 28% of these pairings were detected, typically at 3.91 and seldom below 2.90. For each scFv, signals with the empty controls are counted beside the result, with their mean in brackets.

CDR-L1,CDR-L2,CDR-L3,"log10 Kd, replicates","log10 Kd (nM), mean",empty controls
EGDSLRYQYAN,GKNNRPS,SSRDSGGFQVF,1.52 / 1.29 / 0.77,1.20,2 of 9 (3.54)
EGDSLRYYYAN,GENNRPS,LSRDISGFQVF,4.01 / 5.05 / 3.32,4.13,1 of 9 (5.40)
GGDSLRYYYAN,GKNNRPL,SSRDSSGFQCF,5.45 / 4.00 / n.d.,4.73,3 of 9 (4.66)
EGDSLRYYYAN,GKNFRPS,SSRDSSGFPVF,4.00 / n.d. / 3.05,3.53,3 of 9 (3.37)
EGPSLRYYYAN,GKNNRPS,SSRDSSGFRVR,2.91 / 2.83 / 2.60,2.78,3 of 9 (3.59)
VGDSLMYYYAN,GKNNRPS,SSRDKSGFQVF,2.02 / 2.38 / 2.70,2.37,1 of 9 (4.33)
EVDSLRDYYAN,GKNNRFS,SSRDSSGFQVF,n.d. / n.d. / n.d.,n.d.,2 of 9 (3.78)
EGDSARYYYAN,GNNNRPS,YSRDSSGFQVF,4.17 / 2.84 / 4.19,3.73,2 of 9 (4.52)
EGDSLRYYYAC,GYNNRPS,SSRDSSGFMVF,4.27 / 5.96 / 3.92,4.72,2 of 9 (4.38)
EGDSLRYYYAM,GKNNRGS,SSRDSPGFQVF,4.09 / n.d. / 3.71,3.90,7 of 9 (3.81)
WGGSLRYYYAN,GKNNRPS,SSRDSSQFQVF,3.77 / 3.85 / 2.96,3.53,3 of 9 (3.81)
EGDSLRYYYAN,GCNNRPS,SSRDSAGFQRF,n.d. / n.d. / n.d.,n.d.,3 of 9 (3.50)
EGDSIRYYYAN,GKNNRRS,SSRDSSGFRVF,4.99 / n.d. / n.d.,4.99,4 of 9 (3.28)
EGDSLRYDYAF,GKNNRPS,SERDSSGFQVF,n.d. / 5.02 / n.d.,5.02,2 of 9 (3.43)
EGDSIRYYYAN,GKNNRAS,SSRDSSLFQVF,2.97 / 2.79 / 3.79,3.18,1 of 9 (3.59)
EGDSLNFYYAN,GKNNRPS,SSRDSSGFQVF,2.46 / 2.60 / 2.51,2.52,3 of 9 (3.85)
EGDSLRYYYAN,GMNNRPS,MSRDSSGPQVF,4.18 / 3.63 / n.d.,3.90,1 of 9 (3.51)
EGDSLRYYYAN,GKNSRPS,SMRASSGFQVF,4.22 / n.d. / 3.21,3.72,3 of 9 (3.43)
EGDSLRYYWAN,GKNNRPS,SSRDSSKFQQF,3.19 / 2.88 / 2.20,2.75,0 of 9
EGDSLRYYYAN,GKNVRPE,SSRRSSGFQVF,n.d. / n.d. / 3.62,3.62,4 of 9 (4.52)
EFDSLRYYQAN,GKNNRPS,SSRDSSGFEVF,2.71 / 2.99 / 2.98,2.90,4 of 9 (3.97)
EGDSLRYYYKN,GKNNRPS,SSRDCSGFQVF,n.d. / n.d. / n.d.,n.d.,1 of 9 (4.61)
EGDSLRYYYAT,GKNNRPH,GSRDSSGFQVF,n.d. / 3.56 / n.d.,3.56,4 of 9 (4.05)
EEDSLRVYYAN,GKNNRPS,SSRASSGFQVF,4.11 / 4.18 / n.d.,4.14,1 of 9 (4.66)
EGDSLRYYYAR,GKNNVPC,SSRDSSGFQVF,5.91 / n.d. / n.d.,5.91,2 of 9 (4.72)
EGDSLRYYYAN,GKSNRPS,PPRDSSGFQVF,2.64 / 4.71 / 3.81,3.72,3 of 9 (3.86)
WGDSLRYYYAN,GKNNRPS,SSRDSHGFQLF,3.15 / n.d. / 4.33,3.74,1 of 9 (3.54)
EGDSLGYYYAN,GKNNRPS,SSRITSGFQVF,2.38 / 2.12 / 1.91,2.13,0 of 9
EGSSLRYYYAN,GKNNRPS,SSRDCSGEQVF,4.10 / 2.98 / n.d.,3.54,1 of 9 (4.32)
EGDSLRYYYAN,GKNNRPS,SRRASSGFQVV,n.d. / n.d. / n.d.,n.d.,0 of 9
EGDVLRYYYAN,GKGNRPS,SSRLSSGFQVF,4.08 / 4.75 / n.d.,4.42,3 of 9 (3.16)

The first 4 entries again:

{"CDR-L1": "EGDSLRYQYAN", "CDR-L2": "GKNNRPS", "CDR-L3": "SSRDSGGFQVF", "log10 Kd, replicates": "1.52 / 1.29 / 0.77", "log10 Kd (nM), mean": "1.20", "empty controls": "2 of 9 (3.54)"}
{"CDR-L1": "EGDSLRYYYAN", "CDR-L2": "GENNRPS", "CDR-L3": "LSRDISGFQVF", "log10 Kd, replicates": "4.01 / 5.05 / 3.32", "log10 Kd (nM), mean": "4.13", "empty controls": "1 of 9 (5.40)"}
{"CDR-L1": "GGDSLRYYYAN", "CDR-L2": "GKNNRPL", "CDR-L3": "SSRDSSGFQCF", "log10 Kd, replicates": "5.45 / 4.00 / n.d.", "log10 Kd (nM), mean": "4.73", "empty controls": "3 of 9 (4.66)"}
{"CDR-L1": "EGDSLRYYYAN", "CDR-L2": "GKNFRPS", "CDR-L3": "SSRDSSGFPVF", "log10 Kd, replicates": "4.00 / n.d. / 3.05", "log10 Kd (nM), mean": "3.53", "empty controls": "3 of 9 (3.37)"}